# Apparent affinities of Ab-14 variants for a coronavirus HR2 peptide

Reference: Li et al. 2023, doi:10.1038/s41467-023-39022-2. File: FLAb, binding data.

Target peptide (SARS-CoV-2 spike, HR2 region): PDVDLGDISGINAS

Parent scFv Ab-14: VH joined to VL by a 15-residue (Gly4Ser)3 linker. Changes lie in the heavy chain CDRs alone.
VH: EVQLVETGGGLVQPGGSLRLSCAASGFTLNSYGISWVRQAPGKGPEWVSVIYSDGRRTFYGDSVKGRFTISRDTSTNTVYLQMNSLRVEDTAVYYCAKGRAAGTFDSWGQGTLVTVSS
VL: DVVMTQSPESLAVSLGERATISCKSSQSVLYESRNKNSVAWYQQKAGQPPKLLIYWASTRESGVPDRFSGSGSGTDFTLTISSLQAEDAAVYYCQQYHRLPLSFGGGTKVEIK

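These sequences belong to a second round, designed from the earlier measurements on random variants of the parent. Several design methods are mixed in this list. Affinity was read by AlphaSeq, a pooled yeast mating assay with surface-displayed partners. Binding brings cells together so that they mate, and sequencing counts the barcode pairs among the diploids. A regression on co-assayed BCL2-family reference pairs converts the normalised counts of each replicate to an apparent Kd. Mating was done six times.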

Each variant's VH is given in full.
The Kd shown is the geometric mean over detected replicates; a lower Kd is a better binder.
A pair that was not seen in any replicate is written "not detected"; this usually means weak binding, but a binder can also be missed.

| apparent Kd | replicates with signal | empty controls | VH |
|---|---|---|---|
| 890 pM | 6 of 6 | 0 of 18 | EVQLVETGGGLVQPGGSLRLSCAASGFDLNEYGISWVRQAPGKGPEWVSVIYADGMRTFYADSVKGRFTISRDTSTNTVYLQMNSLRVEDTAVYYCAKGQLAGTFDLWGQGTLVTVSS |
| not detected | 0 of 6 | 0 of 18 | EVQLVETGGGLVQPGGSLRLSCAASGFDIEEYGISWVRQAPGKGPEWVSVIYADGSRTSYSDSVKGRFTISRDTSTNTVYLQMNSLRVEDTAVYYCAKSGRTFNMDLWGQGTLVTVSS |
| 4.7 nM | 6 of 6 | 0 of 18 | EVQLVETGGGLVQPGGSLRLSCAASGFSLNEYGISWVRQAPGKGPEWVSVIYSDGRRTFYGDMVKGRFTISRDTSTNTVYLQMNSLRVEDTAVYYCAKGRTAGTFDSWGQGTLVTVSS |
| 7.5 nM | 4 of 6 | 0 of 18 | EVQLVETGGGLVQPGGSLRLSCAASGFSLNSYGISWVRQAPGKGPEWVSVIYSDGRRTFYADSVKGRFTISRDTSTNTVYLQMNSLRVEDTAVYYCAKGQAAGTFDKWGQGTLVTVSS |
| 1.9 nM | 6 of 6 | 0 of 18 | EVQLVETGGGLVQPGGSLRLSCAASGFGLNSYGISWVRQAPGKGPEWVSVIYSDGRRTFYSDSVKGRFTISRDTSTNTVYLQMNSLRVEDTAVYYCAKGREAGTFDSWGQGTLVTVSS |
| 380 pM | 6 of 6 | 0 of 18 | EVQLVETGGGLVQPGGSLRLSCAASGFDLNEYGISWVRQAPGKGPEWVSVIYADGQRKAYADSVKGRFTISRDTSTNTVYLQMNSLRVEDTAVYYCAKGNVAGTFDIWGQGTLVTVSS |
| not detected | 0 of 6 | 0 of 18 | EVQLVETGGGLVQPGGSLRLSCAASGATLNSYGISWVRQAPGKGPEWVSVIYSDGRRTAYHDSVKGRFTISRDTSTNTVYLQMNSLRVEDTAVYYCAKGRAQGTFRSWGQGTLVTVSS |
| 160 pM | 6 of 6 | 0 of 18 | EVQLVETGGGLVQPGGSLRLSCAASGFNLNEYGISWVRQAPGKGPEWVSVIYADGRRTFYADSVKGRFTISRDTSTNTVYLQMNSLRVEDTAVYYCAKGEIAGTFDKWGQGTLVTVSS |
| 410 nM | 2 of 6 | 0 of 18 | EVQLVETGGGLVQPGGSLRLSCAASGFTLNSYGISWVRQAPGKGPEWVSVIYSDGRRTFYSDSVKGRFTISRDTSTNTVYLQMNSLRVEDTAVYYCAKGSAVGTFDSWGQGTLVTVSS |
| 360 pM | 5 of 6 | 0 of 18 | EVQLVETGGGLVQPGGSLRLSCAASGFTLNDYGISWVRQAPGKGPEWVSVIYSDGRRTFYIDSVKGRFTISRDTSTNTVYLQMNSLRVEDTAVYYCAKGHAAGTFDSWGQGTLVTVSS |
| 700 pM | 4 of 6 | 0 of 18 | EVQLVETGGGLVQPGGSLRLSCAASGMSIGEYGISWVRQAPGKGPEWVSVIYADGERTNYASNFKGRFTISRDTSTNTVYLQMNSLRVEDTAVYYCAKGVHAGTFDVWGQGTLVTVSS |
| 76 nM | 3 of 6 | 0 of 18 | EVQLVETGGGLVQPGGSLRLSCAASQFALNSYGISWVRQAPGKGPEWVSVIYSDGRRTFYGDSVKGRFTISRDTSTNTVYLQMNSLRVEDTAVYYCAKGRAAGTFDSWGQGTLVTVSS |
| 23 nM | 5 of 6 | 0 of 18 | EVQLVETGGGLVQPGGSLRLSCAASGFTLDSYGISWVRQAPGKGPEWVSVIYSDGRRTFYGDSVKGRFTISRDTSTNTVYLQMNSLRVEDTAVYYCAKGQAAGTFDQWGQGTLVTVSS |
| 6.5 nM | 6 of 6 | 0 of 18 | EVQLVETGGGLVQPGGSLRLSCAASGFDLNSYGISWVRQAPGKGPEWVSVIYSDGRRTFYGDKVKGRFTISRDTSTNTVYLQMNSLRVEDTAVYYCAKGEAAGTFDSWGQGTLVTVSS |
| 270 pM | 6 of 6 | 0 of 18 | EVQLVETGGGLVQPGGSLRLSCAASGFNLNEYGISWVRQAPGKGPEWVSVIYADGRRTFYTDDVKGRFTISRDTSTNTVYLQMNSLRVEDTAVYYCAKGETAGTFDLWGQGTLVTVSS |
| not detected | 0 of 6 | 1 of 18 | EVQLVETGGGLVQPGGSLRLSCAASGQSLDEYGISWVRQAPGKGPEWVSVIYADGQRKSYMDSVKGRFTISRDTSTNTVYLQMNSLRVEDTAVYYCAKGNGTGQLFDWGQGTLVTVSS |
| 2.2 nM | 6 of 6 | 0 of 18 | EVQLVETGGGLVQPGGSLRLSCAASGFSLNSYGISWVRQAPGKGPEWVSVIYSDGRRTFYGDSVKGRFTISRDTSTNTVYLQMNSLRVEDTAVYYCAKGKAAGTFDHWGQGTLVTVSS |
| not detected | 0 of 6 | 0 of 18 | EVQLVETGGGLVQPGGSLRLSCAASGFTLESYGISWVRQAPGKGPEWVSVIYSDGRRTFYGDSNKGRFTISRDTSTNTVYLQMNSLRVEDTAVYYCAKGRNAGTFDSWGQGTLVTVSS |
| not detected | 0 of 6 | 0 of 18 | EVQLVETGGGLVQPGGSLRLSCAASGFDLGEYGVSWVRQAPGKGPEWVSVIYADGHRAAYSDNVKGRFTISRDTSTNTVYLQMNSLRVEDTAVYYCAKGAHSGSVQTWGQGTLVTVSS |

The first 2 variants above that were never detected:

| VH | apparent Kd | replicates with signal | empty controls |
|---|---|---|---|
| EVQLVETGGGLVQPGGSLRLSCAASGFDIEEYGISWVRQAPGKGPEWVSVIYADGSRTSYSDSVKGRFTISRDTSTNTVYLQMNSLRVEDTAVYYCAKSGRTFNMDLWGQGTLVTVSS | not detected | 0 of 6 | 0 of 18 |
| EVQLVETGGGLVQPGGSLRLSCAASGATLNSYGISWVRQAPGKGPEWVSVIYSDGRRTAYHDSVKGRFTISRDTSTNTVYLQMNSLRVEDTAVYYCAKGRAQGTFRSWGQGTLVTVSS | not detected | 0 of 6 | 0 of 18 |

In the paper, a design with two or fewer of six values counts as a poor binder.
As a blank, each scFv also met three strains without target: over all heavy chain designs, 1% of these pairings were detected, typically at 120 nM and seldom below 7.0 nM. For each scFv, signals with the empty controls are counted beside the result.
The range of this assay differs from that of the first round, and the authors advise against merging the two.